According to PubChem BioAssay AID435005 (Broad Institute, 2010):
The entries are a selection whose mix differs from that of the whole data set. Some tests of the compounds listed are not included; inactive here does not mean inactive elsewhere. Activity calls are given as the source filed them.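 How the source made its calls: active means Every replicate reaches about 75%, or at least half do and their mean reaches it too (limit read from the data); inconclusive means At least half of replicates reach the limit but their mean does not; inactive means Under half of replicates reach the limit.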

assay: INS-1E beta cell survival under cytokines – luminescence, primary screen (AID 435005); conditions: INS-1E cytokine-induced death, ATP luminescence, 48 h; active compounds read high; percent of positive-control rescue, neutral wells zero; concentration not given here;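 further: 0% = cytokine-treated negative control wells and 100% = positive control rescue; higher means more ATP so stronger rescue from cytokine killing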

Row | Structure (SMILES) | protection from apoptosis
1 | COc1ccc(Br)c(C(=O)NCC2(N3CCCCC3)CCCCC2)c1 | inactive: 1.99%
2 | CC(C)Oc1ccc(C(=O)NCC2(N(C)C)CCCCC2)cc1 | inactive: -4.98%
3 | CN(C)c1cccc(C(=O)NCC2(N(C)C)CCCCC2)c1 | inactive: -2.85%
4 | O=C(OC1CN2CCC1CC2)C(CO)(c1ccccc1)c1ccccc1 (configuration not stated) | inactive: -26.6%
5 | COc1ccc(Cl)cc1C(=O)NCC1(N(C)C)CCCCC1 | inactive: -9.59%
6 | COc1cccc(C(=O)NCC2(N3CCCCC3)CCCCC2)c1 | inactive: -2.11%
7 | O=C(NCC1(N2CCCCC2)CCCCC1)c1cccc(Cl)c1 | inactive: -2.86%
8 | CN(C)C1(CNC(=O)c2ccc(Br)cc2)CCCCC1 | inactive: 0.912%
9 | O=C(NCC1(N2CCCCC2)CCCCC1)c1cc(F)c(F)cc1Cl | inactive: 3.07%
10 | C=CCN1CCN(CCOC(=O)C(O)(c2ccccc2)c2ccccc2)CC1 | inactive: -12%
11 | COc1ccc(C(=O)NCC2(N(C)C)CCCCC2)cc1 | inactive: -4.05%
12 | O=C(NCC1(N2CCCCC2)CCCCC1)c1cccc(Br)c1 | inactive: -0.0997%
13 | Cc1cc(C(=O)NCC2(N3CCCCC3)CCCCC2)ccc1[N+](=O)[O-] | inactive: -3.56%
14 | CN(C)c1ccc(C(=O)NCC2(N(C)C)CCCCC2)cc1 | inactive: -5.66%
15 | CN(C)C1CCCC1OC(=O)C(O)(c1ccccc1)c1ccccc1 (configuration not stated) | inactive: -4.31%
16 | Cc1ccccc1C(=O)NCC1(N2CCCCC2)CCCCC1 | inactive: 3.1%
17 | COc1cc(SC)ccc1C(=O)NCC1(N(C)C)CCCCC1 | inactive: -2.13%
18 | CCN(CC)CC(C)C(C)OC(=O)C(O)(c1ccccc1)c1ccccc1 (configuration not stated) | inactive: -0.981%
19 | CC(C)N1C(=O)CC2(CCN(CCOC(=O)C(O)(c3ccccc3)c3ccccc3)CC2)C1=O | inactive: -2.21%
20 | Cc1ccc(C(=O)NCC2(N3CCCCC3)CCCCC2)cc1 | inactive: -7.28%
21 | O=C(NCC1(N2CCCCC2)CCCCC1)c1cc([N+](=O)[O-])ccc1Cl | inactive: -1.34%
22 | CN1[C@@H]2CC[C@H]1CC(OC(=O)C(O)(c1ccccc1)c1ccccc1)C2 (some centres not stated) | inactive: -7.9%
